This is an account of results in patent US7449454B2, “Metallotexaphyrin derivatives” (Pharmacyclics, Inc., priority 2000, dated 2008).

The nature of series [1]: Plasma concentration after injection in atherosclerotic rabbits. The format is in vivo, NZW rabbits. The conditions noted are these: rabbit, 10 mg/kg injected. How it is done: Plasma pK and biodistribution of the different test compounds of Formula I in plaque are determined and compared with the plasma pK and biodistribution in normal arterial walls. Sixteen normal male NZW rabbits, each weighing 3.5-4.0 kg are obtained from R&R Rabbitry in Stanwood Oreg. Each rabbit is given an intramuscular injection of Ketamine/Rompun [(8.4 mg/kg)/(1.2 mg/kg)] and allowed to relax until the anesthetic takes effect. To induce deep anesthesia, the rabbits then receive a second dose of Ketamine/Rompun [(8.4 mg/kg)/1.2 mg/kg)] via intravenous injection. To expose the abdomen and back legs, each rabbit is shaved with a size 40 blade. Their eyes are coated with lubricant eye ointment (Artificial Tears).
A femoral artery cut down is performed on the right side of the rabbits. Lidocaine (2%) is injected subcutaneously around the femoral artery as a local anesthetic and also applied topically to prevent spasms. A No.4 French Fogarty balloon embolectomy catheter is inserted retrograde 15 cm into the abdominal aorta. The balloon is inflated with 0.5-0.75 ml of hypaque contrast and pulled 3.5 cm distally toward the femoral artery six times. The catheter is then withdrawn. The incision line on the underlying muscle is sutured with 3-0 absorbable chromic gut (Ethicon) and the skin is sutured with 2-0 silk (Ethicon). The rabbits are allowed to recover before being placed back into their respective cages and are placed on a 2% cholesterol diet for 6-8 weeks.
A 3 ml blood sample is taken from each of the rabbits and the cholesterol level for each sample is determined and recorded. Fourteen of the sixteen rabbits are injected with 10 mg/kg of one of the test compounds. One of the remaining rabbits is a pure control and receives neither test compound nor buffer. The other remaining rabbit receives no test compound but does receive 5% mannitol buffer. A 3 ml blood sample is drawn from each of the rabbits at 1, 5 and 24 hours post injection. Each 3 ml blood sample is handled with minimum exposure to ambient light and spun for 10 minutes in a centrifuge at 2,000 rpm within 30 minutes of the blood draw. The supernatant (plasma) is removed by a pipette and put into a 1.8 ml cryotube. The plasma is frozen at −70° C. for future analysis (see part B of this example). All of the rabbits are sacrificed 24 hours after injection.
The clearance rate of the test compound is also particularly important to measure. Plasma samples from each of the test compounds (see part A of this example) are mixed with 10 mM Triton X-100 and the fluorescence optimum is measured at 745 nm by scanning between 700-800 nm using a 450 nm excitation. A standard curve is run to insure that the fluorescence of the samples lies on the linear portion of the curve. The entire fluorescence emission spectrum is observed by using both a monochromator and CCD array. This permits differentiating between the peak at 745 nm and any possible extraneous fluorescence that might have a different optimum, and tail off into the 745 nm region. Test compound accumulation is expressed as μg drug/g tissue (wet weight) or μg/ml in plasma.

Series [2] is described as follows: Solution pH in deionized water. It counts as physicochemical. The conditions noted are these: H2O. The method, then:
The test compound was mixed in 5 ml of deionized water to achieve a 2 mg/ml solution. The solution pH was measured using a Beckman pH meter.

The nature of series [3]: Extinction coefficient by UV/Vis. It counts as physicochemical. The conditions noted are these: in M-1·cm-1 (unit assumed). How it is done:
Four samples of increasing amounts of a test compound of Formula I (between 3 mg and 11 mg) were put into separate 10 ml flasks and dissolved in methanol. Each of the solutions and one control sample (containing no test compound) were diluted to volume. The absorption at 475 nm was measured by UV/Vis and recorded for each of the five samples. The extinction coefficient for each sample was determined accordingly.
The extinction coefficient for the test compound at 475 nm was determined by averaging the extinction coefficient for the four samples (not including the control). The above steps were repeated (at 733 nm) to determine the extinction coefficient for the test compound at 733 nm. When determining the extinction coefficient of aggregated test compounds LuTex acetate, cholate or deoxycholate, the extinction coefficient at 733 nm is not measured. Instead, the above steps were repeated substituting 4% acetic acid/methanol for methanol.

Series [4] in a line: Octanol/water partition coefficient. The format is physicochemical. The method, then:
The partition coefficient was measured using an adaptation of the procedure outlined in Drug Stability: Principles and Practices (AAI, Inc. Wilmington, N.C., 2nd Edition, 1995). A 10 ml solution of 10 mg/ml of the test compound of Formula I dissolved in deionized water was placed in a separator funnel, to which 10 ml of 1-octanol was added. The combined mixture was stirred. The mixture was left to separate and the absorption of the compound was measured in the water phase and in the octanol phase by UV/Vis at 413-417 nm (413-417 offers the closest match in absorbance between the octanol phase and the water phase. The octanol water partition coefficient is determined by the formula: […]
The above steps were then repeated using a 10 ml sample of test compound at 1.0 mg/ml.

The nature of series [5]: Solubility in H2O (deionized water).

In the case of “lutetium complex of 4,5-diethyl-10,23-dimethyl-9,24-bis(3-hydroxypropyl)-16,17-bis[2-[2-(2-methoxyethoxy)ethoxy]ethoxy]pentaazapentacyclo-[20.2.1.1^3,6.1^8,11.0^14,19]heptacosa-1,3,5,7,9,11(27),12,14,16,18,20,22(25),23-tridecaene bis gluconate [LuTex bis gluconate]”, the “Plasma Concentration” value in series [1] (2 mg/ml solution, 1 Hour post injection) was 5600 ng/mL; in series [1] (2 mg/ml solution, 5 Hours post injection), 1500 ng/mL; in series [1] (2 mg/ml solution, 24 Hours post injection) it was 400 ng/mL; in series [1] (10 mg/ml solution, 1 Hour post injection), 2400 ng/mL; in series [1] (10 mg/ml solution, 5 Hours post injection), 700 ng/mL; in series [1] (10 mg/ml solution, 24 Hours post injection), 300 ng/mL. This substance also showed a pH in series [2] of 5.6. For the same substance, the entries for the “ε(methanol)” value in series [3] (at 475 nm) and in series [3] (at 733 nm) were 127900 and 42200, respectively. The entries for the “K (octanol/water)” value in series [4] (0.05 mg/ml) and in series [4] (0.5 mg/ml) were 0.028 and 0.011, respectively. Further, the “pH(octanol/water)” value in series [4] (0.05 mg/ml) was found to be 5.7; in series [4] (0.5 mg/ml), 5.1.

Regarding “The lutetium (III) complex of: 4,5-diethyl-10,23-dimethyl-9,24-bis(3-hydroxypropyl)-16,17-bis[2-[2-(2-methoxyethoxy)ethoxy]ethoxy]pentaazapentacyclo[20.2.1.1^3,6.1^8,11.0^14,19]-heptacosa-1,3,5,7,9,11(27),12,14,16,18,20,22(25), 23-tridecaene bis benzoate [LuTex bis benzoate]”, the “solubility in deionized water” value in series [5] amounted to 100 µg/mL.

As to “The lutetium (III) complex of: 4,5-diethyl-10,23-dimethyl-9,24-bis(3-hydroxypropyl)-16,17-bis[2-[2-(2-methoxyethoxy)ethoxy]ethoxy]pentaazapentacyclo[20.2.1.1^3,6.1^8,11.0^14,19]-heptacosa-1,3,5,7,9,11 (27),12,14,16,18,20,22(25),23-tridecaene bis deoxycholate [LuTex bis deoxycholate]”, the pH in series [2] stood at 6.11. The K in series [4] (concentration not given) was determined as 2.62.
